# Ab-91 heavy chain CDR variants: yeast mating affinities

Reference: Engelhart et al. 2022, doi:10.1038/s41597-022-01779-4. File: FLAb, binding data.

Binding partner: SARS-CoV-2 spike HR2 peptide, sequence PDVDLGDISGINAS.

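The parent was found by panning a naive human phage display library on the peptide. The library (AAYL51) carries one to three amino acid substitutions per variant, with no insertions or deletions. AlphaSeq pools MATa yeast showing the antibodies with MATalpha yeast showing the peptide. After mating in shaken culture at 30 °C for 16 h, diploids were selected and their barcode pairs sequenced. The ratio of observed to expected reads was calibrated, replicate by replicate, on BCL2-family standards whose Kd was known from biolayer interferometry. The assay was run in three technical replicates.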

Parent scFv Ab-91: VL joined to VH by a 15-residue (Gly4Ser)3 linker. Changes lie in the heavy chain CDRs alone.
VL: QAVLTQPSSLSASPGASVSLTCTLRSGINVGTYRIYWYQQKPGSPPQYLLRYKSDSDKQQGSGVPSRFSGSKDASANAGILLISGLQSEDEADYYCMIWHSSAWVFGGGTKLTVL
VH: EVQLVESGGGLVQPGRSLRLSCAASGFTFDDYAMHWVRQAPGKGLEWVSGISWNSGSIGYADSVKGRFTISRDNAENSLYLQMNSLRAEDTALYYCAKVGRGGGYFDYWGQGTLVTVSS

Changes read parent residue, position, new residue, counted from the first residue of the VH shown. All variants listed here change F29 of the VH, counted from its first residue. Scale: log10 of Kd in nM, estimated from mating counts; low values are strong binders. A pair that was not seen in that replicate is written "n.d."; this usually means weak binding, but a binder can also be missed. Empty control strains, which show no peptide, gave a signal in 21% of pairings with library AAYL51; the median was 4.54 and 95% of these signals were weaker than 3.26. No background was subtracted. For each scFv, signals with the empty controls are counted beside the result, with their mean in brackets. Parent in this assay: reference entry 1.86, copy in this library 0.88.

changes,"log10 Kd, replicates",empty controls
F29K G56I,n.d. / n.d. / n.d.,2/9 (3.76)
F29Y G56R Y108T,n.d. / n.d. / n.d.,0/9
F29Q D31Y R101Y,4.18 / 4.57 / 5.47,3/9 (4.56)
F29W I51G S57P,n.d. / n.d. / n.d.,2/9 (4.32)
F29Y A33L A61V,5.11 / n.d. / 5.16,3/9 (5.66)
F29W A33D Y105I,6.15 / n.d. / n.d.,1/9 (4.46)
F29I H35A G56C,3.88 / n.d. / n.d.,3/9 (4.53)
F29S I58F Y108V,5.21 / n.d. / 4.48,0/9
F29K N54E G102L,n.d. / n.d. / n.d.,1/9 (1.91)
F29R G100S G104N,n.d. / 6.67 / 4.80,5/9 (4.89)
F27D F29M Y108V,1.46 / 1.58 / 0.92,6/9 (5.23)
G26W F29V G103N,n.d. / n.d. / 5.08,2/9 (5.10)
F29Q S57C V64I,n.d. / n.d. / n.d.,1/9 (2.85)
F29A S52K S57D,n.d. / 4.57 / n.d.,2/9 (4.52)
G26P F29P S57I,0.95 / 1.01 / 0.69,0/9
F29R Y60D F106D,4.92 / 6.51 / n.d.,4/9 (4.97)
F29L Y32A G59M,n.d. / n.d. / n.d.,0/9
F29Y I51F F106C,n.d. / n.d. / n.d.,0/9
F29R D31E S63Y,n.d. / 4.30 / n.d.,1/9 (4.44)
F29D G103A D107T,n.d. / n.d. / n.d.,1/9 (4.83)
F29G I51R S57I,5.36 / n.d. / 4.16,0/9
F29Y Y32H F106Q,4.24 / 5.38 / 3.81,5/9 (4.55)
F29V Y32A S57I,4.78 / n.d. / n.d.,2/9 (4.82)
F29N V64K G102C,4.90 / n.d. / n.d.,0/9
F29Y S52D W53V,3.78 / 3.95 / n.d.,2/9 (3.84)
F29N H35A G50F,n.d. / n.d. / n.d.,1/9 (3.63)
F29N G59Y S63I,n.d. / n.d. / n.d.,2/9 (3.90)
F29T G102V G104Y,5.22 / n.d. / n.d.,2/9 (4.07)
F29H A33F G103Q,n.d. / n.d. / n.d.,2/9 (3.94)
F29M N54P K65Q,n.d. / n.d. / n.d.,1/9 (5.64)
F29N H35E D107I,n.d. / n.d. / 3.88,1/9 (4.74)
T28Y F29K,6.14 / 3.80 / n.d.,3/9 (4.91)
F27N F29Y Y32W,n.d. / n.d. / n.d.,2/9 (3.73)
F29D S55F Y105E,n.d. / n.d. / n.d.,0/9
F29P V99H,n.d. / n.d. / n.d.,1/9 (4.29)
F29Q G56V G104Y,6.00 / n.d. / n.d.,2/9 (3.86)
F27R F29H Y32H,4.39 / n.d. / n.d.,1/9 (4.99)
F29M,n.d. / n.d. / 3.67,1/9 (4.11)
F29C V64N G103Y,n.d. / n.d. / n.d.,1/9 (3.93)
F29M G59F Y108F,5.09 / 4.75 / n.d.,2/9 (3.50)
F29I D107S,1.81 / 1.77 / 1.49,5/9 (4.48)
F29P D62E Y105S,6.25 / 4.60 / 5.28,3/9 (4.56)
F29Q D31H S55L,n.d. / n.d. / n.d.,1/9 (4.31)
F27K F29Y G50V,n.d. / n.d. / n.d.,0/9
F29H G59S,n.d. / n.d. / n.d.,4/9 (4.20)
F29T G56F Y60W,5.59 / n.d. / 5.21,4/9 (4.45)
F29Q G104V D107P,n.d. / 3.61 / n.d.,0/9

The first 3 entries again:

changes,"log10 Kd, replicates",empty controls
F29K G56I,n.d. / n.d. / n.d.,2/9 (3.76)
F29Y G56R Y108T,n.d. / n.d. / n.d.,0/9
F29Q D31Y R101Y,4.18 / 4.57 / 5.47,3/9 (4.56)